## Antibody variant affinities, Ab-14 heavy chain, assay 1

Target peptide (SARS-CoV-2 spike, HR2 region): PDVDLGDISGINAS

The variants keep the light chain, the linker and the frameworks of Ab-14 (scFv order VH, a 15-residue (Gly4Ser)3 linker, VL).
VH: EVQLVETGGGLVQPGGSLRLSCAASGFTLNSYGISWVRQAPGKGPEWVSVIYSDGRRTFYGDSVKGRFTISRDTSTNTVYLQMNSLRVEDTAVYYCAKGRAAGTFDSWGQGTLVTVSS
VL: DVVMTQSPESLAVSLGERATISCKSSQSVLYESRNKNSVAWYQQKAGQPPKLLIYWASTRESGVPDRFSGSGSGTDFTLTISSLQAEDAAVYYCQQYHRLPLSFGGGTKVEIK

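The starting antibody came from a phage panning campaign against this peptide. The library (AAYL49) carries one to three amino acid substitutions per variant, with no insertions or deletions. The assay is AlphaSeq: two haploid yeast populations carry antibody and antigen on their surface. Binding brings cells together so that they mate, and sequencing counts the barcode pairs among the diploids. Read counts were normalised to the haploid input and turned into Kd by a linear fit to BCL2-family pairs of known affinity, for each replicate. Each pool was mated in three replicate cultures.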

The parent's heavy chain CDRs are GFTLNSYGIS, VIYSDGRRTFYGDSVK, GRAAGTFDS; each variant's own CDRs replace them letter for letter.
Scale: log10 of Kd in nM, estimated from mating counts; low values are strong binders.
A mean of the replicates is given; it leaves out those without a signal.
Where no diploid with the target was found in that replicate, the entry reads "ND": below detection, most likely a poor binder, though not proof of it.
Empty control strains, which show no peptide, gave a signal in 15% of pairings with library AAYL49; the median was 4.06 and 95% of these signals were weaker than 2.83. No background was subtracted. The control count says in how many pairings with the empty strains this scFv gave a signal, with their mean in brackets.

| CDR-H1 | CDR-H2 | CDR-H3 | replicates, log10 nM | log10 Kd (nM), mean | signal with controls |
|---|---|---|---|---|---|
| GFTLNSYGAS | VIYSDGRRTFYGDSVK | GRAAGTLCS | ND ND ND | ND | 0 of 9 |
| WFKNNSYGIS | VIYSDGRRTFYGDSVK | GRAAGTFDS | 6.69 ND 6.49 | 6.59 | 3 of 9 (4.68) |
| NFTLNSQGIS | DIYSDGRRTFYGDSVK | GRAAGTFDS | 5.03 ND ND | 5.03 | 2 of 9 (4.33) |
| GETVNSYGIS | VIYSDGRRTFYGISVK | GRAAGTFDS | 4.20 5.12 5.37 | 4.90 | 7 of 9 (4.52) |
| GFTLNSYGIS | VIQSDGRRTFYGDSVK | YRAAGTLDS | ND 4.07 3.95 | 4.01 | 0 of 9 |
| FFTLNSYGIS | VIYSDGRRSKYGDSVK | GRAAGTFDS | 5.18 3.79 5.51 | 4.83 | 8 of 9 (5.15) |
| GFTLNSCGIS | VIYSDGRRTFYGDSVK | GRAAGTHLS | ND ND ND | ND | 0 of 9 |
| GFTLNSDGIS | FIYSDGRRTFMGDSVK | GRAAGTFDS | ND 3.01 4.43 | 3.72 | 2 of 9 (4.07) |
| WFTLGSYGIS | VIYQDGRRTFYGDSVK | GRAAGTFDS | 2.39 2.99 3.43 | 2.94 | 1 of 9 (3.45) |
| GFTLNSYGIS | VIYSDGRRTFYGISHG | GRAAGTFDS | ND ND ND | ND | 0 of 9 |
| GFTLNSYGIS | KIYSDGRRTFYGDSVD | GRAAGTFDS | ND ND ND | ND | 1 of 9 (2.09) |
| NFTLQSYGIS | VIYSDGRRTFYGDSVK | GRAAGTFDS | 1.79 1.79 2.26 | 1.95 | 4 of 9 (4.26) |
| GFTVNSYGRS | VIYSRGRRTFYGDSVK | GRAAGTFDS | ND ND ND | ND | 3 of 9 (4.26) |
| GFTWNSYGIS | VNYEDGRRTFYGDSVK | GRAAGTFDS | ND ND ND | ND | 0 of 9 |
| GFTLNRYGIS | VIYTDGRRTFYSDSVK | GRAAGTFDS | 1.68 1.62 1.99 | 1.77 | 2 of 9 (3.95) |
| GFTLNSYGIS | VIYSDGRRTFYGDSFK | GRAAGTFDS | 0.96 1.19 1.41 | 1.19 | 3 of 9 (4.52) |
| GFWLLYYGIS | VIYSDGRRTFYGDSVK | GRAAGTFDS | 3.14 2.63 ND | 2.88 | 1 of 9 (3.66) |
| GFMLNSYGIS | VIYSDGRRYFYGDSVK | GRAAGTFDS | 3.24 3.00 2.64 | 2.96 | 4 of 9 (3.54) |
| GFTLNSYGIS | VIYRDLRRTFYGDSVK | GRVAGTFDS | ND ND ND | ND | 0 of 9 |
| GFTLRSYWIS | VIYSDGRRTFYGDSVK | GRDAGTFDS | ND ND 3.94 | 3.94 | 3 of 9 (4.24) |
| GFTLNSYVIS | KIYSDGRRTFYGDSVK | GCAAGTFDS | ND ND ND | ND | 1 of 9 (3.65) |
| AFTLNSYGIS | VCYSDGRRTFYGDSVK | GRAASTFDS | ND ND ND | ND | 1 of 9 (3.16) |
| GFTLNSYGPS | VIYSCGRRTFYGDSVK | GRAAGTFDS | ND ND ND | ND | 0 of 9 |
| GFTLNSYGIS | CIYSDGRRTFYGDSVK | GRCAGTFDS | 4.06 ND ND | 4.06 | 0 of 9 |
| GFTLNSYGSS | VIYSDGRRTFYGDSVK | GRAQLTFDS | ND ND ND | ND | 0 of 9 |
| GFTLNSYGIS | VIYSDGYRTFYGDSVK | GRAAEKFDS | 1.44 1.31 1.43 | 1.39 | 0 of 9 |
| GFTLNSYGIS | VIYSDGRRTFYGDSVK | PWAAGTFDM | ND ND ND | ND | 0 of 9 |
| GFTLNYLGIS | VIYSDGRRTFYGDGVK | GRAAGTFDS | ND ND ND | ND | 0 of 9 |
| GFTLNSYGIS | VIKSDGRRTFYGDFVK | GRAAGTFDS | ND ND ND | ND | 1 of 9 (3.19) |
| PFTWNSYGIS | VIYSDGRRTFYGDSVK | GRAAGTFDK | ND ND ND | ND | 1 of 9 (4.62) |
| KFTLNSYGIS | VIYSDGTRTFYIDSVK | GRAAGTFDS | ND ND ND | ND | 1 of 9 (4.51) |
| GFTLCSYGIS | VIYSDGRRTFYGDFVG | GRAAGTFDS | ND ND ND | ND | 0 of 9 |
| GFTLNSYGDS | VIPSDGRRTFYGDSFK | GRAAGTFDS | 4.91 3.53 ND | 4.22 | 1 of 9 (4.12) |
| GFTLNSYGIS | VIYSDGRRTFYGDSVK | GRAAVAFMS | ND ND 5.05 | 5.05 | 3 of 9 (4.44) |
| IFTLNSYGIS | MIYSDGRRTFNGDSVK | GRAAGTFDS | 3.33 ND 3.90 | 3.62 | 2 of 9 (3.78) |
| GFTLNSYGIS | VIYSDGRRTFYGDSVK | YRAAGTFDN | ND ND ND | ND | 0 of 9 |
| HLTLNSYGIS | VIYSDGRRTFYGDSVK | GRAAGTWDS | ND ND ND | ND | 1 of 9 (3.14) |
| GFTLNSYGIS | VIHSTGRRTFCGDSVK | GRAAGTFDS | ND ND ND | ND | 1 of 9 (4.33) |
| GFTLNSCGIS | VIYSDGRRTFYGDSVK | GRAAGYFDS | ND 5.03 ND | 5.03 | 0 of 9 |
| GFTLNSYGIS | VMYSDGRRTFYGDSVK | GRAEGTFDS | ND ND ND | ND | 0 of 9 |

In this assay the parent's reference entry averaged 0.65; its copy inside this library read 4.11 (one replicate of three).

Source: Engelhart et al. 2022 (doi:10.1038/s41597-022-01779-4), MIT Lincoln Laboratory and A-Alpha Bio; data file from the FLAb repository.